Measurements reported in paper PMC9133069, “In vitro proliferation and long-term preservation of functional primary rat hepatocytes in cell fibers” (Scientific Reports, 2022).

Test system: primary rat hepatocytes
Test: Assessment of hepatocyte proliferation inhibition in cell fibers
Format: cell-based
Conditions: after 10 mg mL^−1 for 24 h, followed up to 7 days of culture
Description: To test this hypothesis, we used retrorsine, a compound that is standardly used to inhibit rat hepatocyte regeneration in vivo[31],[32] and we attempted to measure its IC50 value by obtaining its concentration-reaction curve. Practically, core–shell hydrogel microfibers were fabricated to encapsulate primary rat hepatocytes at the initial cell seeding density of 2.5 × 10^7 cells mL^−1. […] The proliferation ratio of primary hepatocytes in the experimental groups were calculated, and the concentration-reaction curve for retrorsine was obtained (Fig. 4).
Subsequently, we evaluated whether this inhibitory effect of retrorsine on hepatocyte proliferation is reversible or irreversible. […]
Counting primary rat hepatocytes and evaluating their viability per cell fiber were performed three times and averaged. […] The cell number of primary rat hepatocytes per cell fiber was counted by using cell-counting plate (WakenBtech, Japan). […]
Retrorsine (Sigma-Aldrich) was adopted as a compound that inhibits hepatocyte proliferation. […] The proliferation rate of the hepatocytes in the experimental groups was calculated by dividing the numbers of the hepatocytes that proliferated from 2 days of culture to 3 days of culture in the experimental groups with the ones in the control group. […]

Substance: retrorsine
- reversibility of inhibitory effect on hepatocyte proliferation: proliferated after the removal of retrorsine
